AlphaSeq binding of Ab-14 light chain variants to a spike HR2 peptide

Data: MIT Lincoln Laboratory AlphaSeq set, Li et al. 2023, doi:10.1038/s41467-023-39022-2, as distributed in FLAb.

Target peptide (SARS-CoV-2 spike, HR2 region): PDVDLGDISGINAS

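The starting antibody came from a phage panning campaign against this peptide. The variants were designed computationally from a first round of random CDR variants and then made and measured. Several design methods are mixed in this list. The scFvs were displayed on barcoded MATa yeast, the peptide on MATalpha yeast. Binding brings cells together so that they mate, and sequencing counts the barcode pairs among the diploids. The ratio of observed to expected reads was calibrated, replicate by replicate, on BCL2-family standards whose Kd was known from biolayer interferometry. There are six technical replicates.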

Each scFv is VH, the linker GGGGSGGGGSGGGGS, VL, as in the parent Ab-14, and differs from it in the CDRs of the light chain only.
VH: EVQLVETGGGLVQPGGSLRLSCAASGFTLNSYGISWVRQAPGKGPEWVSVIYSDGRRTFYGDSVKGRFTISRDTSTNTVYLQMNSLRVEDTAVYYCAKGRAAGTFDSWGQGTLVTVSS
VL: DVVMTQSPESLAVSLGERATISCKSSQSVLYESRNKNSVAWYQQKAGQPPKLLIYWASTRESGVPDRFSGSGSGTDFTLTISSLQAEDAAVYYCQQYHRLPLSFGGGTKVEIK

The parent's light chain CDRs are KSSQSVLYESRNKNSVA, WASTRES, QQYHRLPLS; each variant's own CDRs replace them letter for letter.
This list holds designs with more than six substitutions.
Kd is apparent (estimated from mating counts) and averaged on the log scale over replicates with a signal. Smaller is tighter.
Where no diploid with the target was found in any replicate, the entry reads "not detected": below detection, most likely a poor binder, though not proof of it.
Of ten entries with the parent sequence, four were seen in most replicates (averages 2.2 nM to 240 nM), three in one and three in none, so single entries are noisy.
Values of this round are not directly comparable with the first-round values of the same sequences.
In the paper, a design with two or fewer of six values counts as a poor binder.
As a blank, each scFv also met three strains without target: over all light chain designs, 4% of these pairings were detected, typically at 430 nM and seldom below 38 nM.

| CDR-L1 | CDR-L2 | CDR-L3 | apparent Kd | detected |
|---|---|---|---|---|
| TLYGLTNSMSKNKDNVA | EMSTREA | QQYDRLPLM | 39 nM | 6 of 6 |
| MISMEEAPAGQQESSIA | HGGTKSE | QQYNRLPLA | 5.2 nM | 6 of 6 |
| KFVQSWGYESRNKNAVA | HASTRCS | QQYHRLPLS | 3.1 nM | 6 of 6 |
| TISQMMLMQTSHKNSVA | GEETRYN | QQYHHLPLS | 4.1 nM | 6 of 6 |
| TIAQSMLYLSNHKNSIA | QAETRES | QQYHRLPIS | 51 nM | 6 of 6 |
| KVPGSNDYESRNKNSVA | EASTRES | QDYHRLPLS | 8.4 nM | 6 of 6 |
| KLRQQTLYETRNKNSVA | QASTRED | QQYHRLPLS | 780 pM | 6 of 6 |
| HMSMLTLGGLRHRNSVA | QMTTREN | QQYDRLPLA | 61 nM | 6 of 6 |
| MLSEMMHMLGAKKNSIA | DLVERAN | QQYHRLPLE | 8.8 nM | 6 of 6 |
| KIPQSMLGEWRNKNSVA | NASQRES | QQYHRLPLS | 1.1 nM | 6 of 6 |
| RIRESMGYSHEGRRNIA | QAQIREI | QQYSQLPLF | 2.3 nM | 6 of 6 |
| TLTQVTMVESYGKNSVA | QASTRLE | QDYHRLPLS | 8.4 nM | 6 of 6 |
| KVSEFMRGLMKMKDSIA | DNETRNS | QQYDRLPLS | 64 nM | 6 of 6 |
| KIIQEGLYESRNKNSVA | SASTRSP | QQYHRLPLS | 700 pM | 6 of 6 |
| AMQMERLGQKQYQNNIA | NQDLRTA | QQYYMLPLV | 1.2 nM | 6 of 6 |
| MMLSGSVEQQNIQNAVA | EMSMVYD | QQYVSLPLS | not detected | 0 of 6 |
| HLSQSTDLESVHKNSIA | DLMTREE | QQYHRLPLS | 750 pM | 6 of 6 |
| SLTSHEEEKEGAEASVA | EAVMLES | QQYHQLPLM | 51 nM | 6 of 6 |
| TIGQSVHETTRIKNSVA | HATMRED | QQYDRLPLS | 11 nM | 6 of 6 |
| KLGQMTAIESHNLNSVA | QMDTRES | QQYDRLPLS | 7.0 nM | 6 of 6 |
| KLSQSVLYQMGQKNSVA | QASTRMS | QQYHRLPLS | 7.0 nM | 5 of 6 |
| TLYGLTNSMSKNKDSVA | EMSTREA | QQYDRLPLA | 10 nM | 6 of 6 |
| KLQQSNLYESRNDNSVA | HASMRES | QQYHRLPLF | 950 pM | 6 of 6 |
| SVTRYTDENGLKMSSVA | GAANRMT | QQYHRLPLT | 4.7 nM | 6 of 6 |
| TLGQVTMVESYNKNSVA | QVSTRLE | QDYHRLPLS | 690 nM | 3 of 6 |
| KMMQSQLYESRMSNAVA | NASQRMS | QQYHRLPLS | 570 pM | 6 of 6 |
| KLSMSVRMESFVKDNVA | ENSTRED | QDYHRLPLS | 410 nM | 3 of 6 |
| MISQVMNTLTRHGQNVA | DLSERED | QQYFRLPLS | 7.3 nM | 6 of 6 |
| IVTYAQNDGSLYTNNIA | EGENTLA | QQYFRLPLM | 23 nM | 6 of 6 |
| KVSQQNLYEQRNANNVA | NASLRES | QQYHRLPLS | 750 pM | 6 of 6 |
| KLYMNVGTMSHNKQSIA | DMERRED | QQYHRLPLS | 5.2 nM | 6 of 6 |
| KQSQSVLQGERNKNSVA | NASYRLS | QQYHRLPLS | 2.4 nM | 6 of 6 |
| KLYMSTGYESRNSDSIA | DNSTRGR | QQYHRLPLS | 7.0 nM | 6 of 6 |
| KIGGVTNGISFKKNSVA | EQSTRED | QQYDRLPLS | 7.6 nM | 6 of 6 |
| NVGQLMDGMTRNRNNVA | HQSTRED | QHYHRLPLS | 2.3 nM | 6 of 6 |
| KVAQGIYEEKRHSHNIA | EVSHLCD | QQYARLPLE | 1.3 nM | 6 of 6 |
| KISYMGEQFSTNHSSIA | QASTREQ | QQYHRLPLS | 12 nM | 6 of 6 |
| KLSSITGHMSMSKNNVA | EMVTREN | QQYNRLPLS | 33 nM | 6 of 6 |
| KLRQVTGYESYLKNSVA | QTSERAS | QDYHRLPLS | 33 nM | 6 of 6 |
| KWQQSDDLESRNHNSVA | HASTRCS | QQYHRLPLS | 4.5 nM | 6 of 6 |
| QINMEMNHDLDDEQNVA | DAMTEVK | QQYGRLPLS | 11 µM | 1 of 6 |
| KLREVQHVETKQRNNVA | DNDTREY | QDYYRLPLS | 580 nM | 5 of 6 |
| KVSEFMKGLMMRTDSIA | DNNTRDS | QQYDRLPLS | 150 nM | 4 of 6 |
| MISDLMLYGSRARNPIA | NASMREY | QQYHRLPLE | 7.7 nM | 6 of 6 |
| MVGQGLMGFSRAKNSIA | QASLRED | QQYHRLPLI | 11 nM | 6 of 6 |
| KLMGEMEYESRNKNSVA | HASERES | QQYHRLPLQ | 2.1 nM | 6 of 6 |
| QLNEYKHETMEKTQNIA | DMTIREP | QQYAHLPLA | 2.0 nM | 6 of 6 |
| KISQMARVGMTHGNSIA | EEATRAK | QQYHRLPLA | 12 nM | 2 of 6 |
| KIGHGLTTEMRNRNSVA | QTETRVS | QHYHRLPLS | 110 nM | 6 of 6 |
| MISQLMNMGTFAINSVA | QASIRNE | QQYDRLPLQ | 10 nM | 6 of 6 |
| KVEMSQPYESRNKNSVA | HASVRES | QQYHRLPLS | 1.1 nM | 6 of 6 |
| KVFMELAEDKASTRNIA | DASMHCA | QQYVRLPLG | 12 nM | 6 of 6 |
| KLANYMYQGSLVQANVA | EAKELWE | QQYGHLPLA | 440 nM | 2 of 6 |
| KLVNFMNRGTHHTSNIA | DAQNRLD | QQYYRLPLA | 1.9 nM | 6 of 6 |
| KISMMSTIESIMHNSVA | QTETREN | QQYDRLPLS | 10 nM | 6 of 6 |
| KIEISNSWSLRGTRAIA | QASTRAH | QQYQRLPLT | 24 nM | 6 of 6 |
| KFSGSFLYWSRNSNAVA | EASTRES | QDYHRLPLS | 5.9 nM | 6 of 6 |
| HMSAVTLGGTRARNSVA | QMTTREN | QQYDRLPLS | 37 nM | 6 of 6 |
| VLQQLGLYEQRNKNSVA | SASTRCS | QQYHRLPLS | 2.6 nM | 6 of 6 |
| KLSPSVLGMWRNSNSVA | NASTRES | QQYHRLPLS | 960 pM | 6 of 6 |
| TIGGTLMYGVRNRSNVA | EVSQRLN | QQYDRLPLL | 34 nM | 5 of 6 |
| KVSEFMKGLMMRTDSIA | DNVTREN | QQYDRLPLS | 120 nM | 6 of 6 |
| KMAQGWMYESRNKNSVA | NASVREM | QQYHRLPLS | 640 pM | 6 of 6 |
| KIHISELYEDRNINSVA | SASQRLE | QQYHRLPLS | 3.0 nM | 6 of 6 |
| KLMPSWEYESRNKNSVA | EASVRES | QQYHRLPLS | 1.1 nM | 6 of 6 |
| SFSQTVMYQSTMRNNVA | QTSTRES | QQYDRLPLS | 1.9 nM | 6 of 6 |
| RLNVFQNVSTQGNNNIA | GAEQKVH | QQYMRLPLY | 1.1 nM | 6 of 6 |
| NITGMVEEIGTTTKNIA | EGEFRCM | QQYSRLPLS | 13 nM | 6 of 6 |
| RIKCRSLEHGGQNNAIA | AAAKLVT | QQYARLPLA | 3.1 nM | 6 of 6 |
| MVSQLMLWGLHAKNSIA | EAQTRLN | QQYDRLPLF | 14 nM | 1 of 6 |
| KMSQSQPYESRMSNSVA | NASLRMS | QQYHRLPLS | 1.4 nM | 6 of 6 |
| KLSQLFYKESRNKNNVA | EMTTRGQ | QQYDRLPLS | 1.0 nM | 6 of 6 |
| HIQSNMFGFGGVANNVA | QTATKMV | QQYSKLPLM | 2.3 nM | 6 of 6 |
| KISQSEYYEDRNKMSVA | SASQRLS | QQYHRLPLS | 1.1 nM | 6 of 6 |
| KLSFSHQVESINKSNVA | EMVTRES | QQYHRLPLS | 26 nM | 6 of 6 |
| HMSMLTLGGMRMRNSVA | QMTTREN | QQYDRLPLS | 12 nM | 4 of 6 |
| KLQMSAEYGSRNKNSVA | SASQRES | QQYHRLPLS | 460 pM | 6 of 6 |

Repeated from above, the 8 best binders with a signal in all replicates:

{"CDR-L1": "KLQMSAEYGSRNKNSVA", "CDR-L2": "SASQRES", "CDR-L3": "QQYHRLPLS", "apparent Kd": "460 pM", "detected": "6 of 6"}
{"CDR-L1": "KMMQSQLYESRMSNAVA", "CDR-L2": "NASQRMS", "CDR-L3": "QQYHRLPLS", "apparent Kd": "570 pM", "detected": "6 of 6"}
{"CDR-L1": "KMAQGWMYESRNKNSVA", "CDR-L2": "NASVREM", "CDR-L3": "QQYHRLPLS", "apparent Kd": "640 pM", "detected": "6 of 6"}
{"CDR-L1": "KIIQEGLYESRNKNSVA", "CDR-L2": "SASTRSP", "CDR-L3": "QQYHRLPLS", "apparent Kd": "700 pM", "detected": "6 of 6"}
{"CDR-L1": "HLSQSTDLESVHKNSIA", "CDR-L2": "DLMTREE", "CDR-L3": "QQYHRLPLS", "apparent Kd": "750 pM", "detected": "6 of 6"}
{"CDR-L1": "KVSQQNLYEQRNANNVA", "CDR-L2": "NASLRES", "CDR-L3": "QQYHRLPLS", "apparent Kd": "750 pM", "detected": "6 of 6"}
{"CDR-L1": "KLRQQTLYETRNKNSVA", "CDR-L2": "QASTRED", "CDR-L3": "QQYHRLPLS", "apparent Kd": "780 pM", "detected": "6 of 6"}
{"CDR-L1": "KLQQSNLYESRNDNSVA", "CDR-L2": "HASMRES", "CDR-L3": "QQYHRLPLF", "apparent Kd": "950 pM", "detected": "6 of 6"}